We go through four substances from US20230293708A1, “CONJUGATE OF SAPONIN AND SINGLE-DOMAIN ANTIBODY, PHARMACEUTICAL COMPOSITION COMPRISING SAID CONJUGATE, THERAPEUTIC USE THEREOF” (SAPREME TECHNOLOGIES B.V., priority 2020, published 2023).

Where two headings read alike, the source gives them in different places.

In one experiment the test system is human A431 tumor cells. Kind of experiment: A431 xenograft mouse tumor model, tumor volume. In kind it is in vivo. Here is the method:
Female Balb/c nude mice were injected subcutaneously with a suspension of human A431 tumor cells. Under the skin of the mice, a human epidermal carcinoma developed in the xenograft animal tumor model. After injection of the tumor cells, the xenograft tumor was allowed to develop to a size of approximately 170-180 mm^3. The A431 tumor cells have the following characteristics: high EGFR expressors, medium CD71 expressors, low HER2 expressors.
In Table 6A, the results of the treatment of control mice and tumor-bearing mice are presented. Tumor-bearing mice were treated with the indicated antibodies directed to either human Her2/neu, human EGFR, or human CD71, which are cell-surface receptors on the xenograft tumor. Cetuximab was covalently conjugated with saponin SO1861. […] The dose of the ADCs was sub-optimal in the tumor model. That is to say, from previous experiments, it was established at which sub-optimal dose of the ADCs no tumor-regression or arrest of tumor growth would be observable.
The 2 target 2-components system (2T2C) is the combination treatment of mAb1-SO1861 and mAb2-protein toxin, (FIG. 1B-D).

A further experiment relates to MDA-MB-468 cells. In words: Cell viability (MTS) assay, cell killing. In kind it is cell-based, human. Here is the method:
(§1) After treatment the cells were incubated for 72 hr at 37° C. before the cell viability was determined by a MTS-assay, performed according to the manufacturer's instruction (CellTiter 96® AQueous One Solution Cell Proliferation Assay, Promega). Briefly, the MTS solution was diluted 20× in DMEM without phenol red (PAN-Biotech GmbH) supplemented with 10% FBS. The cells were washed once with 200 μL/PBS well, after which 100 μL diluted MTS solution was added/well. The plate was incubated for approximately 20-30 minutes at 37° C. Subsequently, the OD at 492 nm was measured on a Thermo Scientific Multiskan FC plate reader (Thermo Scientific). For quantification the background signal of ‘medium only’ wells was subtracted from all other wells, before the cell viability percentage of treated/untreated cells was calculated, by dividing the background corrected signal of treated wells over the background corrected signal of the untreated wells (×100).
(§2) Cells were seeded in a 96 well plate at 5.000-10.000 c/w in 100 μL/well and incubated overnight at 37° C. […] The media was removed from the cell culture plate and replaced by 180 μL culture media, followed by the addition of 20 μL treatment-mix/well. […] In the case that endosomal acidification inhibitors (chloroquine (Sigma Aldrich) or bafilomycin A1 (Enzo Life Sciences)) were used, the cell culture media in step 1 of treatment was replaced by 180 μL media containing 1 μM chloroquine or 0.2 μM bafilomycin A1. The plate was incubated for 1 hour at 37° C., before the 10× treatment-mix samples were added. The remaining incubation and treatment steps were performed according to standard procedures known in the field.
(§3) After treatment the cells were incubated for 72 hr at 37° C. before the cell viability was determined by a MTS-assay, performed according to the manufacturer's instruction (CellTiter 96® AQueous One Solution Cell Proliferation Assay, Promega). Briefly, the MTS solution was diluted 20× in DMEM without phenol red (PAN-Biotech GmbH) supplemented with 10% FBS (PAN-Biotech GmbH). The cells were washed once with 200 μL PBS per well, after which 100 μL diluted MTS solution was added per well. The plate was incubated for approximately 20-30 minutes at 37° C. Subsequently, the optical density at 492 nm was measured on a Thermo Scientific Multiskan FC plate reader (Thermo Scientific). For quantification the background signal of ‘medium only’ wells was subtracted from all other wells, before the ratio of […].

The test system of another experiment is HeLa cells. Kind of experiment: Cell viability (MTS) assay, cell killing. It counts as cell-based, human. The note with it: conjugate titrated + fixed 50 pM trastuzumab-saporin (Example 14). On the procedure: as §2
as §3, with “Briefly, the MTS solution was diluted 20× in DMEM without phenol red (PAN-Biotech GmbH) supplemented with 10% FBS (PAN-Biotech GmbH). The cells were washed once with 200 μL PBS per well, after which 100 μL diluted MTS solution was added per well. The plate was incubated for approximately 20-30 minutes at 37° C.” left out

A further experiment has as its system A2058 cells. In words: Cell viability (MTS) assay, cell killing. In kind it is cell-based, human. On the procedure: as §1, §2, §3
For the next experiment, the system named is A431 cells. Kind of experiment: Cell viability (MTS) assay, cell killing. It counts as cell-based, human. On the procedure: as §1, §2, §3
In a further experiment the test system is SK-BR-3 cells. In words: Cell viability (MTS) assay, cell killing. The note with it: mAb-SO1861 (DAR4) titrated + fixed 50 pM bivalentVHHEGFR-dianthin. It counts as cell-based, human. Here is the method:
as §1, §2, §3

Where [1] appears, read: read-out: IC50 (calculated on concentration SO1861), + fixed 10 pM EGF-dianthin.
Setting [2] is: read-out: IC50 (calculated on concentration SO1861), + fixed 10 pM cetuximab-saporin.
Setting [3] is: read-out: IC50 (calculated on concentration SO1861), SO1861 or mAb-SO1861 titrated + fixed 50 pM trastuzumab-saporin.
The mark [4] stands for this setting: mAb-SO1861 (DAR4) titrated + fixed 50 pM bivalentVHHEGFR-dianthin, read-out: IC50.

As for “Cetuximab: monoclonal antibody recognizing and binding human EGFR [reference compound]”, the tumor volume change result in the experiment on human A431 tumor cells (cetuximab positive control alone) is reported as “only tumor growth inhibition, but no regression”. Also, the “outcome (death/euthanasia or survival)” value in the experiment on human A431 tumor cells (treatment alone) is “(death/euthanasia)”.

With “Trastuzumab-SO1861: SO1861-EMCH conjugated via cysteine residues to trastuzumab, cleavable hydrazone linker”, the IC50 in the experiment on MDA-MB-468 cells (conjugate titrated + fixed 1.5 pM EGFdianthin (Example 14), read-out: IC50) was greater than 1000 nM.

Turning to “Cetuximab-SO1861: SO1861-EMCH conjugated via cysteine residues to cetuximab, cleavable hydrazone linker”, the IC50 in the experiment with HeLa cells is 400 nM; with MDA-MB-468 cells (setting [1]) it was 6 nM; in the experiment on MDA-MB-468 cells (setting [2]), 3 nM; in the experiment on MDA-MB-468 cells (setting [3]) it was 18 nM; in the experiment on A2058 cells (conjugate titrated + fixed 50 pM trastuzumab-saporin (Example 14)), greater than 400 nM; in the experiment on A431 cells (conjugate titrated + fixed 50 pM trastuzumab-saporin (Example 14), read-out: IC50), 3 nM. For the same substance, the IC50 in the experiment with A431 cells (setting [1]) is 8 nM; in the experiment with A431 cells (setting [2]) it was 5 nM; in the experiment with A431 cells (setting [3]) it was 12 nM. In the experiment on human A431 tumor cells (Balb/c nude mice, treatment alone, sub-optimal dose), the “tumor size (volume)” value is on record as 2000 mm^3. For the same substance, the “outcome (death/euthanasia or survival)” value in the experiment on human A431 tumor cells (treatment alone) is “death/euthanasia”.

Regarding “Cetuximab-SO1861 (DAR4): SO1861-EMCH conjugated via cysteine residues to cetuximab with a DAR 4”, the IC50 in the experiment on MDA-MB-468 cells (setting [4]) is 0.5 nM; with A2058 cells (mAb-SO1861 (DAR4) titrated + fixed 50 pM bivalentVHHEGFR-dianthin) it was greater than 100 nM; in the experiment on A431 cells (setting [4]) it was 4 nM; in the experiment on SK-BR-3 cells, greater than 100 nM.
